Assays:
[1] = target: Serine/threonine-protein kinase pim-1 (Homo sapiens) (UniProt P11309); assay: Inhibition of PIM1 (unknown origin) at 1 uM relative to control
[2] = target: Serine/threonine-protein kinase Nek1 (Homo sapiens) (UniProt Q96PY6); assay: Inhibition of NEK1 (unknown origin) at 1 uM relative to control
[3] = target: Serine/threonine-protein kinase TBK1 (Homo sapiens) (UniProt Q9UHD2); assay: Inhibition of TBK1 (unknown origin) at 1 uM relative to control
[4] = target: Serine/threonine-protein kinase Chk2 (Homo sapiens) (UniProt O96017); assay: Inhibition of CHK2 (unknown origin) at 1 uM relative to control
[5] = target: Serine/threonine-protein kinase PAK 1 (Homo sapiens) (UniProt Q13153); assay: Inhibition of PAK1 (unknown origin) at 1 uM relative to control
[6] = target: Serine/threonine-protein kinase 16 (Homo sapiens) (UniProt O75716); assay: Inhibition of PKL12 (unknown origin) at 1 uM relative to control
[7] = target: Dual specificity mitogen-activated protein kinase kinase 1 (Homo sapiens) (UniProt Q02750); assay: Inhibition of MEK1 (unknown origin) at 1 uM relative to control
[8] = target: ALK tyrosine kinase receptor (Homo sapiens) (UniProt Q9UM73); assay: Inhibition of ALK (unknown origin) at 1 uM relative to control
[9] = target: Tyrosine-protein kinase BTK (Homo sapiens) (UniProt Q06187); assay: Inhibition of BTK (unknown origin) at 1 uM relative to control
[10] = target: RAF proto-oncogene serine/threonine-protein kinase (Homo sapiens) (UniProt P04049); assay: Inhibition of RAF1 (unknown origin) at 1 uM relative to control
[11] = target: Misshapen-like kinase 1 (Homo sapiens) (UniProt Q8N4C8); assay: Inhibition of MINK1 (unknown origin) at 1 uM relative to control
[12] = target: Epidermal growth factor receptor (Homo sapiens) (UniProt P00533); assay: Inhibition of EGFR (unknown origin) at 1 uM relative to control
[13] = target: Angiopoietin-1 receptor (Homo sapiens) (UniProt Q02763); assay: Inhibition of TEK (unknown origin) at 1 uM relative to control
[14] = target: Maternal embryonic leucine zipper kinase (Homo sapiens) (UniProt Q14680); assay: Inhibition of MELK (unknown origin) at 1 uM relative to control
[15] = target: Tyrosine-protein kinase Blk (Homo sapiens) (UniProt P51451); assay: Inhibition of BLK (unknown origin) at 1 uM relative to control
[16] = target: Epithelial discoidin domain-containing receptor 1 (Homo sapiens) (UniProt Q08345); assay: Inhibition of DDR1 (unknown origin) at 1 uM relative to control
[17] = target: Mitogen-activated protein kinase 1 (Homo sapiens) (UniProt P28482); assay: Inhibition of ERK2 (unknown origin) at 1 uM relative to control
[18] = target: cAMP-dependent protein kinase (PKA) (Homo sapiens) (UniProt P22694+P17612+P22612); assay: Inhibition of PKA (unknown origin) at 1 uM relative to control; format: protein assay
[19] = target: LIM domain kinase 1 (Homo sapiens) (UniProt P53667); assay: Inhibition of LIMK1 (unknown origin) at 1 uM relative to control
[20] = target: Hepatocyte growth factor receptor (Homo sapiens) (UniProt P08581); assay: Inhibition of cMet (unknown origin) at 1 uM relative to control
[21] = target: Protein kinase C alpha type (Homo sapiens) (UniProt P17252); assay: Inhibition of PRKCA (unknown origin) at 1 uM relative to control
[22] = target: Serine/threonine-protein kinase B-raf (Homo sapiens) (UniProt P15056); assay: Inhibition of BRAF (unknown origin) at 1 uM relative to control
[23] = target: Vascular endothelial growth factor receptor 1 (Homo sapiens) (UniProt P17948); assay: Inhibition of VEGFR1 (unknown origin) at 1 uM relative to control
[24] = target: Serine/threonine-protein kinase PLK4 (Homo sapiens) (UniProt O00444); assay: Inhibition of PLK4 (unknown origin) at 1 uM relative to control
[25] = target: Tyrosine-protein kinase JAK1 (Homo sapiens) (UniProt P23458); assay: Inhibition of JAK1 (unknown origin) at 1 uM relative to control
[26] = target: Aurora kinase A (Homo sapiens) (UniProt O14965); assay: Inhibition of Aurora A (unknown origin) at 1 uM relative to control
[27] = target: Serine/threonine-protein kinase 25 (Homo sapiens) (UniProt O00506); assay: Inhibition of STK25 (unknown origin) at 1 uM relative to control
[28] = target: Cyclin-dependent kinase 1 (Homo sapiens) (UniProt P06493); assay: Inhibition of CDK1 (unknown origin) at 1 uM relative to control

Sequences of proteins named here, by UniProt entry; tags and fusion partners are left off. A change or cut given only in a name is not applied to a line headed by its entry.
UniProt P11309, whole entry, looked up: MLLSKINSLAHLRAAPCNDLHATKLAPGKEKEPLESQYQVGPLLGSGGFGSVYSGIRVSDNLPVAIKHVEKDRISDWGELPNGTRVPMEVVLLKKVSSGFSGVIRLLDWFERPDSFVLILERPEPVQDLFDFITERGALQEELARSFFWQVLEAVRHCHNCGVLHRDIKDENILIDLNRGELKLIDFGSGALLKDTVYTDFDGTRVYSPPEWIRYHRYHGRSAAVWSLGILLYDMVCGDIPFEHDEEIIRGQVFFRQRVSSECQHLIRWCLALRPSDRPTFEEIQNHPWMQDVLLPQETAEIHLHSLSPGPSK
UniProt O96017, whole entry: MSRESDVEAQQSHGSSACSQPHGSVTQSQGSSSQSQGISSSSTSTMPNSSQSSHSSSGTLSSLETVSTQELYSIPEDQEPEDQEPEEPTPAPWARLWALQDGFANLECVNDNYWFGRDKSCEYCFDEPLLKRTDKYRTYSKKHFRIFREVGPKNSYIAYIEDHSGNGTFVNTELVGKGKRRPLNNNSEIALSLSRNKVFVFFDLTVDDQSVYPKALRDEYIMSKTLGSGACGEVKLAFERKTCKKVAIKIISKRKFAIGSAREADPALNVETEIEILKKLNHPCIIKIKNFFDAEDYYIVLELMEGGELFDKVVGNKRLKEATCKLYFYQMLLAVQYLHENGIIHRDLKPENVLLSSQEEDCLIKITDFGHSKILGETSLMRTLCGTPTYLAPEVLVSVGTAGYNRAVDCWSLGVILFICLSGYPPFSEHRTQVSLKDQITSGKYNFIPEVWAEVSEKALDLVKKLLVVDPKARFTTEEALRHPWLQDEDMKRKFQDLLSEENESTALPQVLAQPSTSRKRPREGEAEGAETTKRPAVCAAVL
UniProt O75716, whole entry: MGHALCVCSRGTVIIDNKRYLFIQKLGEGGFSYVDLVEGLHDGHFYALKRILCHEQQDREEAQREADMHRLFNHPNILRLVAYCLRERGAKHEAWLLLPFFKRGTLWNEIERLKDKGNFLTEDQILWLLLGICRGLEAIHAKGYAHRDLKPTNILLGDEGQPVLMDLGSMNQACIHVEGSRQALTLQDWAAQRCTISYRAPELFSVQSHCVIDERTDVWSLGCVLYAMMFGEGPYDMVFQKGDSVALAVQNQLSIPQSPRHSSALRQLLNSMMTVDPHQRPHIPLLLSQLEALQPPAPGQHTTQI
UniProt Q14680: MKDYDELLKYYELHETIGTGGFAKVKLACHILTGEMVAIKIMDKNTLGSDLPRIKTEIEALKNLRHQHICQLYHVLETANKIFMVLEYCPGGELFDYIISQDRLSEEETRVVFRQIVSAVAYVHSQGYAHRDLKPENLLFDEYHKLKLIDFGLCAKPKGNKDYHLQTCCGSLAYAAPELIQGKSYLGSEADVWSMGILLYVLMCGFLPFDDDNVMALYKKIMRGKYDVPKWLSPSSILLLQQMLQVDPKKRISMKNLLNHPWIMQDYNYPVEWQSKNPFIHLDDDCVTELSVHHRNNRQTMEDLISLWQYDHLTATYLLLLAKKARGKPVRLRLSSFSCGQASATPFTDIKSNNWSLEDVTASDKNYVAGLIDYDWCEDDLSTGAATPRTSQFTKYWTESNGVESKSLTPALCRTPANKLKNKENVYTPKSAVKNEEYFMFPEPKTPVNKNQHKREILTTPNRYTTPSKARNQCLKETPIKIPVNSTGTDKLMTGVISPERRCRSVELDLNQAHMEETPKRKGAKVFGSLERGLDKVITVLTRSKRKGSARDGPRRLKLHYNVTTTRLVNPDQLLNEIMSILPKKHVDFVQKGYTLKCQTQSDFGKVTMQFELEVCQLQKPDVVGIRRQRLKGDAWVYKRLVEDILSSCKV
UniProt P28482, whole entry: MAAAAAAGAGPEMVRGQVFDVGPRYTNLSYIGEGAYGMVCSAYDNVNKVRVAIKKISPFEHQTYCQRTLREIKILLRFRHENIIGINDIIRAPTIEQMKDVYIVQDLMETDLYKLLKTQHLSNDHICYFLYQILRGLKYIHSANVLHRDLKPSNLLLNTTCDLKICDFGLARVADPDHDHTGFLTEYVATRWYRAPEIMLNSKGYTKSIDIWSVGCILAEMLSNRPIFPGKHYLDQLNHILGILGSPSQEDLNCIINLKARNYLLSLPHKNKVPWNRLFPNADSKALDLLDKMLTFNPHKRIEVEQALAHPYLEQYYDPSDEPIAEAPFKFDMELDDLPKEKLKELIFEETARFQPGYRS
UniProt P22612, whole entry, looked up: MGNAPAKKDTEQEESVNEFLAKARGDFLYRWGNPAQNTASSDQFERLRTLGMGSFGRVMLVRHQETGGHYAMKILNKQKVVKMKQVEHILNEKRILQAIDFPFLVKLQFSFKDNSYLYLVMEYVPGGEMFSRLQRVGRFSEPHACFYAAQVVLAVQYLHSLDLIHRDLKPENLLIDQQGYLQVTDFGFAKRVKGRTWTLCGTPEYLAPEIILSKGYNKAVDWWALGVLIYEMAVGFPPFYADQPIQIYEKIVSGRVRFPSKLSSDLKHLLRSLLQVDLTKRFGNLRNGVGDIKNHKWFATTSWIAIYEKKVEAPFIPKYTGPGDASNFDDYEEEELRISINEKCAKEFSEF
UniProt P53667: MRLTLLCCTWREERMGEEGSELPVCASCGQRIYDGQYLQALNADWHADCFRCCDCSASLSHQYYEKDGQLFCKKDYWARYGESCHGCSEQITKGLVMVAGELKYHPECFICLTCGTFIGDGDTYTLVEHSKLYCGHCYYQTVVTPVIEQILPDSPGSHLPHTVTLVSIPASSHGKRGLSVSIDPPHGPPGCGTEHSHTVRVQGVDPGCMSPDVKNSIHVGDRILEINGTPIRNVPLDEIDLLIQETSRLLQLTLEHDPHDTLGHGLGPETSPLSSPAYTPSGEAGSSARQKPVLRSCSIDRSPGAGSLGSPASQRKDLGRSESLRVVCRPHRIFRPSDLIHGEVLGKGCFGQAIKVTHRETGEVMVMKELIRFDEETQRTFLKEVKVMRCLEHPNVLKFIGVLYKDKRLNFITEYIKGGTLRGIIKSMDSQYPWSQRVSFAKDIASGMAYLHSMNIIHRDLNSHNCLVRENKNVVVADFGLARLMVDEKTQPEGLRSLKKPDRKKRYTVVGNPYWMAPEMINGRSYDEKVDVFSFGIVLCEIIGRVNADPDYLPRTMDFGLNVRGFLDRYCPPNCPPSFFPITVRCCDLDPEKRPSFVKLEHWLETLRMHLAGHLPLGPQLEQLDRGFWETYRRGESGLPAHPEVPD
UniProt P08581: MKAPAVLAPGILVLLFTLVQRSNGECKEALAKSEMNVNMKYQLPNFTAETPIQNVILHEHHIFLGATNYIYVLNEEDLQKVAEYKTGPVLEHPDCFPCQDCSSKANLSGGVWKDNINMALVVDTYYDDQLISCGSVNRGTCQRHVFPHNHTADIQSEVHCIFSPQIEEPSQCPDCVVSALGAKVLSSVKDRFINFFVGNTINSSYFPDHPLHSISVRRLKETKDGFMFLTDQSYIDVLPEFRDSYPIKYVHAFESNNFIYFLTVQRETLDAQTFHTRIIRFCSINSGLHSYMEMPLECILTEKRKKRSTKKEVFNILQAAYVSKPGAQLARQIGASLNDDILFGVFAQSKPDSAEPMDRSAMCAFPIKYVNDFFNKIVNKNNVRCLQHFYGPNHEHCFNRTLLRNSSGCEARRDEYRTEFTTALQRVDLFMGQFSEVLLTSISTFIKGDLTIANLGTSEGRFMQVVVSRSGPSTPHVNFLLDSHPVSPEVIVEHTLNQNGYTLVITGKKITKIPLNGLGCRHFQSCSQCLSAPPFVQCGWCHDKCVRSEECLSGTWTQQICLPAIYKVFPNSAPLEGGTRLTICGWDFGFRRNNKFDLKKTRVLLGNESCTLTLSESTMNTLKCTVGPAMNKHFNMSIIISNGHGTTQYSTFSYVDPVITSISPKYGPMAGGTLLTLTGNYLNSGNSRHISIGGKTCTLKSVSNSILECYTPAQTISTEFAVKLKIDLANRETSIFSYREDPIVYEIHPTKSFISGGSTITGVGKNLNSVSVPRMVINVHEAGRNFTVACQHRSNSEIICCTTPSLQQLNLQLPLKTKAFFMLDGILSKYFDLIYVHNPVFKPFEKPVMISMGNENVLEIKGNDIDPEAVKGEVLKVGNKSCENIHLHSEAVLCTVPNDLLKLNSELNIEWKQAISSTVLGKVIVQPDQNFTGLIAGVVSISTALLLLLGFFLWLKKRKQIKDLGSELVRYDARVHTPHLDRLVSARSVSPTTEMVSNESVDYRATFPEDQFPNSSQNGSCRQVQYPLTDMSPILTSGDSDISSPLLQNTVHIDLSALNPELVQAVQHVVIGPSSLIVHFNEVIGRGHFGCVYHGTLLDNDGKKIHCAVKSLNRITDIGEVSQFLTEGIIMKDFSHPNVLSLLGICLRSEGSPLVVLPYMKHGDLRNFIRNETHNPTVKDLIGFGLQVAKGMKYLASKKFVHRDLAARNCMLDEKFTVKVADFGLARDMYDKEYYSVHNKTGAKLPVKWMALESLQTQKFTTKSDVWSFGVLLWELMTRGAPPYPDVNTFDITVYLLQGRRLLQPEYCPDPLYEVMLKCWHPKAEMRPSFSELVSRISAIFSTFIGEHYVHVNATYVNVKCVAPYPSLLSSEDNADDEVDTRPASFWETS
UniProt P23458: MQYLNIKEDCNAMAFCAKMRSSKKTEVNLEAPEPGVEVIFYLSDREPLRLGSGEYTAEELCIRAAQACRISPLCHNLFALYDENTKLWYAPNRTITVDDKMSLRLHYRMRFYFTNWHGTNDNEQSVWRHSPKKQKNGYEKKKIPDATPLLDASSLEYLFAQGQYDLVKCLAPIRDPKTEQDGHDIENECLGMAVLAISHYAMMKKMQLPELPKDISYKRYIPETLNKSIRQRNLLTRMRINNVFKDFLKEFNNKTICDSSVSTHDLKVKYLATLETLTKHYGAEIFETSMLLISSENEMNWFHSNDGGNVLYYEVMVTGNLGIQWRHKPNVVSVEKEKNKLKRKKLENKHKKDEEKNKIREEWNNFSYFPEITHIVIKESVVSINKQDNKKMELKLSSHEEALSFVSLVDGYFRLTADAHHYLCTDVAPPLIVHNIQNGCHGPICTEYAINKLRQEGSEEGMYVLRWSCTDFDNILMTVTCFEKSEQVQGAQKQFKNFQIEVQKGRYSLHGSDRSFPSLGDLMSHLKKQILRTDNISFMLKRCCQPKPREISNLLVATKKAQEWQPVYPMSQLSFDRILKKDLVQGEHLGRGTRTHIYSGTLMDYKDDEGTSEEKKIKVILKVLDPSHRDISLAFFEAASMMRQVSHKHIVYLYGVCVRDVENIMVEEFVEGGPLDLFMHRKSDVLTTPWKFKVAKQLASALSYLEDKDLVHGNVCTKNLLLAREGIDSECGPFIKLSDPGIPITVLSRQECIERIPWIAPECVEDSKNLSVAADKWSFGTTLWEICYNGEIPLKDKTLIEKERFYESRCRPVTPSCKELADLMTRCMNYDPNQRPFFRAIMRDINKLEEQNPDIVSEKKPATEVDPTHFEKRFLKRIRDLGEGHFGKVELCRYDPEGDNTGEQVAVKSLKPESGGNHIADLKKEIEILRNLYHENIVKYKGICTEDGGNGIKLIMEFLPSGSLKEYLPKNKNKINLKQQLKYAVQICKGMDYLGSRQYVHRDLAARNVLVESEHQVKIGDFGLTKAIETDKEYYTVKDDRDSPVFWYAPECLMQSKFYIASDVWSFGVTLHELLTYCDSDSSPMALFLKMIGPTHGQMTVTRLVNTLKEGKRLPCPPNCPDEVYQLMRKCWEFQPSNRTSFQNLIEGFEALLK
UniProt O14965: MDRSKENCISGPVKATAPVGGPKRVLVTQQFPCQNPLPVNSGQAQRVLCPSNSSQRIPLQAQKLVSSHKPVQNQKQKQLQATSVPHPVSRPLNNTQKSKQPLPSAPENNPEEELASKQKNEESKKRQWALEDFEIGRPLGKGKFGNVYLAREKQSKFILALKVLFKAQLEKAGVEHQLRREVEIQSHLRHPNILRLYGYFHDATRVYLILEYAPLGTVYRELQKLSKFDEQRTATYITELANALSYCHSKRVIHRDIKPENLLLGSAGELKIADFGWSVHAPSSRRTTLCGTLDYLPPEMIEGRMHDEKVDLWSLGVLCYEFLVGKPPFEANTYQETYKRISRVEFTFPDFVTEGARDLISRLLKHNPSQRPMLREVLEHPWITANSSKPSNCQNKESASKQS
UniProt O00506, whole entry, looked up: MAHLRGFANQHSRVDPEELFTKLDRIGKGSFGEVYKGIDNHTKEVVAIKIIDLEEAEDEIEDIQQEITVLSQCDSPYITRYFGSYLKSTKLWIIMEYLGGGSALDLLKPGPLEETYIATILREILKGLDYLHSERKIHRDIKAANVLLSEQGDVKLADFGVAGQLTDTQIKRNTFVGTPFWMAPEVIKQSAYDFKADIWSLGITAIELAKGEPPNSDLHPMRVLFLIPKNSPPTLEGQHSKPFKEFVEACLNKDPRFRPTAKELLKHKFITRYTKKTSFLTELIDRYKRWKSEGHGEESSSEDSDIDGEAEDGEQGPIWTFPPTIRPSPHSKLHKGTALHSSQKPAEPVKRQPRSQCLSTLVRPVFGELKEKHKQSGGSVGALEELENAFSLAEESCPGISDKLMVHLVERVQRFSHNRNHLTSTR

inhibition [1]: 5%
inhibition [2]: 2%
inhibition [3]: 21%
inhibition [4]: 11%
inhibition [5]: 31%
inhibition [6]: 88%
inhibition [7]: 9%
inhibition [8]: 95%
inhibition [9]: 27%
inhibition [10]: 4%
inhibition [11]: 24%
inhibition [12]: 10%
inhibition [13]: 88%
inhibition [14]: 81%
inhibition [15]: 80%
inhibition [16]: 61%
inhibition [17]: 7%
inhibition [18]: 21%
inhibition [19]: 94%
inhibition [20]: 13%
inhibition [21]: 30%
inhibition [22]: 3%
inhibition [23]: 31%
inhibition [24]: 96%
inhibition [25]: 92%
inhibition [26]: 96%
inhibition [27]: 95%
inhibition [28]: 79%
SMILES: Cc1ccc2c(Nc3cc(C4CC4)[nH]n3)nc(NCc3ccc(F)cc3F)nc2c1

— ChEMBL document CHEMBL5137027, “Discovery of quinazoline derivatives CZw-124 as a pan-TRK inhibitor with potent anticancer effects in vitro and in vivo” (Eur J Med Chem, 2022)
